Laboratory results published in ChEMBL document CHEMBL4033767, “Structure-Guided Strategy for the Development of Potent Bivalent ERK Inhibitors” (ACS Med Chem Lett, 2017).

The chains behind the UniProt entries cited, without tags or fusion partners.
UniProt P28482, whole entry: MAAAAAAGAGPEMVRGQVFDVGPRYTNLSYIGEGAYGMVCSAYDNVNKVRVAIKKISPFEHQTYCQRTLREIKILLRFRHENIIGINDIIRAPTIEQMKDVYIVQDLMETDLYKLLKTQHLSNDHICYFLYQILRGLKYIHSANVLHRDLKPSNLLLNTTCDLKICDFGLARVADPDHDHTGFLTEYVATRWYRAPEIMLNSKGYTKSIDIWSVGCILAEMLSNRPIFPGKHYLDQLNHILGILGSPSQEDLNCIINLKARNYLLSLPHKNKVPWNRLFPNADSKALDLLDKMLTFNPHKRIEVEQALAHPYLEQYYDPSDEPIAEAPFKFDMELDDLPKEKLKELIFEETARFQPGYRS

Biological target: Mitogen-activated protein kinase 1 (Homo sapiens, UniProt P28482)
Assay: Inhibition of phosphorylated ERK2 (unknown origin) using myelin basic protein as substrate after 2 hrs in presence of ATP by ADP-glo assay

Nc1n[nH]c2nnc(-c3c(-c4ccccc4)nn4ccccc34)cc12
IC50: 1200 nM
